Key:
[1] = molecular target: GFP-SmSERT-B (Schistosoma mansoni, UniProt Q3I1M7); assay: cell-based
[2] = molecular target: GFP-SmSERT-A (Schistosoma mansoni, UniProt Q3HL76); assay: cell-based

By UniProt entry, the sequences of proteins in these tests, tags left out. Where a name states a change or a piece, a line headed by the entry shows the natural chain unless it says otherwise.
UniProt Q3I1M7: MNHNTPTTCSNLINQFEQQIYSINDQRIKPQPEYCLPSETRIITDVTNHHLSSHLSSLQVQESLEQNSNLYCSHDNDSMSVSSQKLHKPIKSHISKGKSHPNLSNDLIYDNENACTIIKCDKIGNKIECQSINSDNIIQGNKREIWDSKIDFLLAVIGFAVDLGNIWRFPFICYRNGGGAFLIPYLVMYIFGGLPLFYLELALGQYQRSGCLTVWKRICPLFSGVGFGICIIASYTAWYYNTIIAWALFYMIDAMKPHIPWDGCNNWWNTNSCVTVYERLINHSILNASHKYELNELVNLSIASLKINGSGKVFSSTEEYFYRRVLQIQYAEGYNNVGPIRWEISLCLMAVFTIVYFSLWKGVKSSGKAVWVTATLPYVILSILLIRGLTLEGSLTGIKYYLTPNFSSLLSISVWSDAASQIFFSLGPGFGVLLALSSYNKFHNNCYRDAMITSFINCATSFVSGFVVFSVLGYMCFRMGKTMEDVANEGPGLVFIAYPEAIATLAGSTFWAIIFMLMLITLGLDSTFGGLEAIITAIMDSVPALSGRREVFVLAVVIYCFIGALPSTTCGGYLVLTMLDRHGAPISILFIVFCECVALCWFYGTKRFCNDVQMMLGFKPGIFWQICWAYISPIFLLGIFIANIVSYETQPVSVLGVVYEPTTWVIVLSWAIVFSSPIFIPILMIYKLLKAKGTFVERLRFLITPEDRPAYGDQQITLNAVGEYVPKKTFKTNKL
UniProt Q3HL76: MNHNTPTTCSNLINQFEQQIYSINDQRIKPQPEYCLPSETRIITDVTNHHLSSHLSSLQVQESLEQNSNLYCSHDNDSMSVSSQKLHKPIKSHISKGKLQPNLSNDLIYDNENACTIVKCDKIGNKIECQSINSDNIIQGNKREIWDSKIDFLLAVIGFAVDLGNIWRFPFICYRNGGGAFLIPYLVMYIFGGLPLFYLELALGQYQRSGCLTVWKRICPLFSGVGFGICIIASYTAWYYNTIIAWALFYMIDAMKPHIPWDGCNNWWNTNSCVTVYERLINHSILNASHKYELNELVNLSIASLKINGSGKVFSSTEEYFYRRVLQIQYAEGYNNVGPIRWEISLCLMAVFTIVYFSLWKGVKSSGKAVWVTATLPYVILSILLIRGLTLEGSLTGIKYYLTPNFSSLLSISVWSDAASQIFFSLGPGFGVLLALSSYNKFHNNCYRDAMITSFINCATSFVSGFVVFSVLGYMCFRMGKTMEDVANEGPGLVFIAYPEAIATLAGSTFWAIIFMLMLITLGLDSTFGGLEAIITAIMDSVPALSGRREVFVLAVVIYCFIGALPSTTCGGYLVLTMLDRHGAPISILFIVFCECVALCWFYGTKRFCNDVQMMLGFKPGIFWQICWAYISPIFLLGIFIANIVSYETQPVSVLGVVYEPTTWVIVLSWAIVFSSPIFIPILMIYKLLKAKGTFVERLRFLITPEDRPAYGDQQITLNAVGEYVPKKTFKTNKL

| Compound | IC50 [1] | IC50 [2] |
| --- | --- | --- |
| CN(C)CCCN1c2ccccc2Sc2ccc(Cl)cc21 [Chlorpromazine] | 300 ± 200 nM | 200 ± 100 nM |
| CNCCCN1c2ccccc2CCc2ccccc21 [Desipramine] | 1500 ± 400 nM |  |
| CN(C)CCCN1c2ccccc2CCc2ccc(Cl)cc21 [Clomipramine] | 200 ± 100 nM |  |
| CN(C)CCCC1(c2ccc(F)cc2)OCc2cc(C#N)ccc21 (stereo not shown) [Citalopram] | 190 ± 130 nM | 250 ± 100 nM |
| CNCCC(Oc1ccc(C(F)(F)F)cc1)c1ccccc1 (stereo not shown) [Fluoxetine] | 200 ± 100 nM | 200 ± 100 nM |
| Fc1ccc([C@@H]2CCNC[C@H]2COc2ccc3c(c2)OCO3)cc1 [Paroxetine] | 100 ± 100 nM | 90 ± 70 nM |

Reference: publication PMC2746412 (European journal of pharmacology, 2009)
